# Test system: V1 receptor
# Assay: V1 antagonism in conscious rats (oral administration)
# Assay type: in vivo, rat
# Details: 10 mg/kg oral, AVP 30 mU/kg i.v.
smiles,measurement,setting,value
CC(=O)NCCCOc1ccc(C(=O)N2CCC(N3C(=O)CCc4ccccc43)CC2)cc1,"Pressure increase by AVP (diastolic blood pressure, pre-dose increase = 100%)",4 hours after administration,100%
same,"Pressure increase by AVP (diastolic blood pressure, pre-dose increase = 100%)",only from 30 minutes to 1 hour after administration,≤ 50%
